# Assay results as given in ChEMBL document CHEMBL1123919, “Molecular modification of anticholinergics as probes for muscarinic receptors. 3. Conformationally restricted analogues of benactyzine” (J Med Chem, 1987).
# Organism: Rattus norvegicus
# Assay: Antimuscarinic potency is measured as its ability to block ACh-induced contractions of the rat ileum.
# Assay type: functional
compound,measurement,value
CCN(CC)CCOC(=O)C(O)(c1ccccc1)c1ccccc1,pA2,7.46
